Only a part is listed here, and it is no random draw. The source made the active and inactive calls.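 The calls were made as follows: active = compounds whose thallium flux B-score, printed positive for inhibition, exceeds three library SD while starting fluorescence stays within three; inactive = the rest.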
These compounds were tested against Potassium voltage-gated channel subfamily KQT member 1 (Homo sapiens) (UniProt P51787) (assay: inhibitors of human KCNQ1 channel, primary screen, cell-based, thallium flux, high-throughput (AID 2642;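 also: channel opened by potassium depolarization with thallium stimulus after 20 min compound exposure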)). Conditions: CHO-K1 KCNQ1, FluxOR thallium flux fluorescence, at 10 µM.

Protein sequences, listed by entry. Tags and fused reporters are not part of them.
UniProt P51787, whole entry: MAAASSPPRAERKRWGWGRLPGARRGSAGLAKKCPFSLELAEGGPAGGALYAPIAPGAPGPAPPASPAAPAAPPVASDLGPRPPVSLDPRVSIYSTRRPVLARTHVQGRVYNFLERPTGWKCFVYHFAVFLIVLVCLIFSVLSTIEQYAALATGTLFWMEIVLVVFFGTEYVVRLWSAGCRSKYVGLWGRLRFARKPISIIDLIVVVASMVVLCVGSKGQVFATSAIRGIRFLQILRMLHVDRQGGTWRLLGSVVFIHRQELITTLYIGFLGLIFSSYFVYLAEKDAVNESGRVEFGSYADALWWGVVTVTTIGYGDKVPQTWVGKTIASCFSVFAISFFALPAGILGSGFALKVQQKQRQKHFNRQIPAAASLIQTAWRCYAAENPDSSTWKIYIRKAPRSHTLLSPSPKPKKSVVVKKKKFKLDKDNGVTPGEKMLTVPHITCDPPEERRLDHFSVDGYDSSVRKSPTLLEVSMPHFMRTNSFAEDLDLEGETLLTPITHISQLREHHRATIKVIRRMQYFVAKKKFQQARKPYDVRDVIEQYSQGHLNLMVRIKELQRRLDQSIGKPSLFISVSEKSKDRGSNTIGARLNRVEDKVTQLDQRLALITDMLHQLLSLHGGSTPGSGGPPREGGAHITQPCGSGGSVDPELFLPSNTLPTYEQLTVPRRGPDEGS

Compound	outcome
COc1ccccc1OP(C)(=O)Nc1cc(Cl)ccc1C (centres undefined)	inactive
CC(C)NC(=O)NP(=O)(Oc1ccccc1)Oc1ccccc1	inactive
CCN(CC)C(=S)SC(NC=O)C(Cl)(Cl)Cl (centres undefined)	inactive
Cc1cc(C)cc(OP(C)(N)=O)c1 (centres undefined)	inactive
Cc1c2c(nc3ccccc13)SC(C(Cl)Cl)C2 (centres undefined)	inactive
CCN(CC)CCCOC(=O)C(O)(c1ccccc1)c1ccccc1	inactive
Cc1cc(=O)[nH]c(N[N+](=O)[O-])n1	inactive
O=C(OC1CN2CCC1CC2)C12CC3CC(CC(C3)C1)C2 (centres undefined)	inactive
COc1cc(I)ccc1[As](=O)(O)O	inactive
COc1ccc2nc(NP(=O)(c3ccccc3)c3ccccc3)sc2c1	inactive
COc1ccc(N/C(=N/P(=O)(N2CCOCC2)N2CCOCC2)N2CCOCC2)cc1	inactive
CP(=O)(Oc1ccccc1)OC(c1ccccc1)C(F)(F)F (centres undefined)	inactive
COP1(=S)c2c(C)nn(CCC#N)c2N=C(c2ccc(F)cc2)N1C (centres undefined)	inactive
Cc1cccc(C)c1OP(C)(=O)Nc1ccc(SC(F)(F)F)cc1 (centres undefined)	inactive
CP(=O)(Nc1ccc(SC(F)(F)F)cc1)Oc1ccc(Cl)cc1 (centres undefined)	inactive
Cc1cc(C)cc(OP(C)(=O)Nc2ccc(SC(F)(F)F)cc2)c1 (centres undefined)	inactive
O=C(Nc1ccncc1[N+](=O)[O-])c1ccc([N+](=O)[O-])cc1[N+](=O)[O-]	inactive
O=C(COc1ccccc1)OC1CN2CCC1CC2 (centres undefined)	inactive
CP(=O)(NC(=O)Nc1ccccc1)Oc1ccccc1 (centres undefined)	inactive
CCc1ccc(OP(C)(=O)N2CCN(c3ccc([N+](=O)[O-])cc3)CC2)cc1 (centres undefined)	inactive
O=C(OC1CN2CCC1CC2)c1cccc([N+](=O)[O-])c1 (centres undefined)	inactive
CCOP(C)(=S)SCC(=O)NC(C)C(=O)O (centres undefined)	inactive
CCOC(=O)c1ccc(NP(C)(=O)Oc2ccc(OC)cc2)cc1 (centres undefined)	inactive
CCOC(=O)c1ccc(NC(=O)C(C)(CCl)SC)cc1 (centres undefined)	inactive
O=[N+]([O-])c1cc([N+](=O)[O-])c(O)c([N+](=O)[O-])c1.c1ccc(Oc2ccncc2)cc1	inactive

Compound	outcome
CCC(C)N(CC(C)C)C(=S)SC(NC(C)=O)C(Cl)(Cl)Cl (centres undefined)	inactive
CP(=O)(Nc1ccccn1)Oc1ccc(Cl)cc1 (centres undefined)	inactive
CCOC(=O)Nc1ccc([As](=O)(O)O)c(O)c1	inactive
Cc1cc(SC(NC(=O)c2ccccc2)C(Cl)(Cl)Cl)nc(C(C)C)n1 (centres undefined)	inactive
CCCCOc1ccc(C(=O)NCC2(N3CCCCC3)CCCCC2)cc1OC	inactive
CP(=S)(Nn1cnnc1)Oc1ccccc1 (centres undefined)	inactive
CCOC(=O)Nc1cccc([As](=O)(O)O)c1	inactive
COc1ccccc1OP(C)(=O)Nc1ccccc1 (centres undefined)	inactive
O=P(Nc1ccccn1)(c1cccc2ccccc12)c1cccc2ccccc12	inactive
Cc1cc(SC(NC=O)C(Cl)(Cl)Cl)ncn1 (centres undefined)	inactive
O=[N+]([O-])c1ccc(Nc2ccc(Oc3ccc([N+](=O)[O-])cc3[N+](=O)[O-])cc2)c([N+](=O)[O-])c1	inactive
CP(=O)(Nc1ccccc1Br)Oc1ccccc1 (centres undefined)	inactive
Nc1ccc2c(ccc3cccnc32)n1.O=[N+]([O-])c1cc([N+](=O)[O-])c(O)c([N+](=O)[O-])c1	inactive
CP(=O)(OC12CC3CC(CC(C3)C1)C2)OC12CC3CC(CC(C3)C1)C2	inactive
O=C(Nc1cc([As](=O)(O)O)ccc1O)c1ccccc1	inactive
CCOC(=O)c1ccc(NP(C)(=O)Oc2ccc(Cl)cc2)cc1 (centres undefined)	inactive
O=[N+]([O-])c1ncn(CCn2ncnc2[N+](=O)[O-])n1	inactive
CC(C)(C)C(=O)NC(Sc1ccncn1)C(Cl)(Cl)Cl (centres undefined)	inactive
O=C(O)CNc1ccc([As](=O)(O)O)cc1	inactive
O=[N+]([O-])c1cccc(NC2=NCC(CBr)S2)c1 (centres undefined)	inactive
COc1ccc(C2=NCC(CBr)S2)cc1 (centres undefined)	inactive
COc1ccc(OP(C)(=O)Nc2ccc(Br)cc2)cc1 (centres undefined)	inactive
CCN(CC)CC(O)COC(=O)C(O)(c1ccccc1)C1CCCCC1 (centres undefined)	inactive
CCc1ccc(OP(C)(=O)Nc2cccnc2)cc1 (centres undefined)	inactive
CCc1nc2c(n1)c1c(non1O)c1c2no[n+]1[O-]	inactive

Compound	outcome
O=[N+]([O-])c1cc([N+](=O)[O-])c(CCNc2ccccc2)c([N+](=O)[O-])c1	inactive
Cc1ccc(NP(=O)(Oc2ccccc2)Oc2ccccc2)nc1	inactive
CP(=O)(Oc1ccccc1)N1CCOC1=O (centres undefined)	inactive
O=C(OCCCN1CCCC1)C(O)(c1ccccc1)C1CCCCC1 (centres undefined)	inactive
O=[N+]([O-])c1cccc2n[nH]nc12	inactive
CC(=O)N1C2C3N(C(C)=O)C1C1N(C(C)=O)C(C(N1C(C)=O)N3C(C)=O)N2C(C)=O	inactive
COc1ccccc1OP(C)(=O)Nc1c(C)n(C)n(-c2ccccc2)c1=O (centres undefined)	inactive
CP(=O)(Nc1ccc(Cl)cc1)Oc1ccc(F)cc1 (centres undefined)	inactive
CCN(/C(=N/P(=O)(N1CCOCC1)N1CCOCC1)N1CCOCC1)c1ccc(OC)cc1	inactive
C[N+]1=C2C=CC=CC=C2SC12C([N+](=O)[O-])=CC([N+](=O)[O-])=C[C-]2[N+](=O)[O-] (centres undefined)	inactive
COc1ccccc1OP(C)(=O)Nc1ccccc1Br (centres undefined)	inactive
CC(C)(C)c1ccc(OP(C)(=O)O)cc1	inactive
Nc1ccc([As](=O)(O)c2ccc(N)cc2)cc1	inactive
CC1CCN(C(=O)Oc2c(Cl)cc(Cl)c3cccnc23)CC1	inactive
CN(C)C(=O)OCCc1n(C)cc[n+]1C	inactive
CN(C)C(=O)c1c([N+](=O)[O-])cc([N+](=O)[O-])cc1[N+](=O)[O-]	inactive
CC(C)=N/N=C(\N)N[N+](=O)[O-]	inactive
Cc1ccc(N/C(=N/P(=O)(N2CCOCC2)N2CCOCC2)N2CCOCC2)cc1	inactive
COc1ccccc1OP(C)(=O)Nc1ccc(Br)cc1 (centres undefined)	inactive
NC(=O)c1cc([N+](=O)[O-])cc([N+](=O)[O-])c1N	inactive
CN1CCCC(OC(=O)C(c2ccccc2)c2ccccc2)C1 (centres undefined)	inactive
Clc1ccc(Cl)c(NC2=NCC(CBr)S2)c1 (centres undefined)	inactive
CN(C)CCOC(=O)C(O)(c1ccccc1)C1CCCC1 (centres undefined)	inactive
Cc1ccc(OP(=O)(Nc2nccs2)Oc2ccc(C)cc2)cc1	inactive

— PubChem BioAssay AID2642 (Johns Hopkins Ion Channel Center, 2010)
